This assay addresses T1, PDK-1 (Homo sapiens, UniProt O15530).
T1 sequence (O15530 1-556): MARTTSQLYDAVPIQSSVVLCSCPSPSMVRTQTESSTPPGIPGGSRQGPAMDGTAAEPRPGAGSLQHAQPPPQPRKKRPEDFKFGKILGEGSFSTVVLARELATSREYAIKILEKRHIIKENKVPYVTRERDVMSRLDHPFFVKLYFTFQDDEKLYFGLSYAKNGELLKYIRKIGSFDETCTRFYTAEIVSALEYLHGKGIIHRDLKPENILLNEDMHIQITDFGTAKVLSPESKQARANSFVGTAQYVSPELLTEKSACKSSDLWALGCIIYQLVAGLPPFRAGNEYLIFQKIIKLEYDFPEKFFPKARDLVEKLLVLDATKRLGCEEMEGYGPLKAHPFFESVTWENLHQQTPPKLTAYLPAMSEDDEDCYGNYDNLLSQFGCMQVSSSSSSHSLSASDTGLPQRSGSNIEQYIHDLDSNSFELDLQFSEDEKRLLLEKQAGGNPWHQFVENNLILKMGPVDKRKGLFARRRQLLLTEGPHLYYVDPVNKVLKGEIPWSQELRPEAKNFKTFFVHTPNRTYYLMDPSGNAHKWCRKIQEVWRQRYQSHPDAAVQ
In words: PDK-1 kinase inhibition ELISA assay (phosphorylation of His6-tagged SGK1 S422D by PDK-1). Particulars: PDK-1 ELISA, Table 11. The class given is biochemical. (In general: In an ELISA, binding on a coated surface is turned into a signal by an enzyme label.)

pIC50: −log10 of the molar value.

The source of these data is patent publication US20080293712A1, “Benzo[C][2,7]Naphtyridine Derivatives, Methods of Making Thereof and Methods of Use Thereof” (WYETH, priority 2007, published 2008).

What is called pIC50 is −log10 of the IC50, conventionally taken in molar units. Low values mean a high IC50, high ones a low IC50.

`Nc1nc(-c2cncc(OC[C@@H](N)Cc3ccccc3)c2)cc2c1cnc1cc(C#CCCn3ccnc3)ccc12` [Ia-5, 2-(5-{[(2S)-2-Amino-3-phenylpropyl]oxy}pyridin-3-yl)-8-[4-(1H-imidazol-1-yl)but-1-yn-1-yl]benzo[c]-2,7-naphthyridin-4-amine]: the pIC50 is 7.44.
The result for `COc1cc2ncc3c(N)nc(-c4cncc(OC[C@@H](N)Cn5cc(-c6nccs6)cn5)c4)cc3c2cc1OC` [Ib-92, 2-[5-({(2S)-2-amino-3-[4-(1,3-thiazol-2-yl)-1H-pyrazol-1-yl]propyl}oxy)pyridin-3-yl]-8,9-dimethoxybenzo[c][2,7]naphthyridin-4-amine] reads 7.44.
The compound `COc1cc2ncc3c(N)nc(-c4cncc(OC[C@@H](N)COc5cccc(C#N)c5)c4)cc3c2cc1OC` [Ib-155, 3-{[(2S)-2-amino-3-{[5-(4-amino-8,9-dimethoxybenzo[c][2,7]naphthyridin-2-yl)pyridin-3-yl]oxy}propyl]oxy}benzonitrile] showed a pIC50 of 7.44.
Compound `COc1cc2ncc3c(N)nc(-c4ccc5[nH]cnc5c4)cc3c2cc1OC` [Ib-244, 2-(1H-benzimidazol-5-yl)-8,9-dimethoxybenzo[c][2,7]naphthyridin-4-amine] showed a pIC50 of 7.44.
